Test results published in patent US20250127887A1 (priority 2021, published 2025).

Format: physicochemical
Conditions: pH 7.4

KKKKKKKK-PEG24-(azide-DBCO)-(Ahx-(F′)10)2 [Compound 117]
Size (diameter, nm): 26 nm

KKKKKKKK-PEG4-(azide-DBCO)-Ahx-(F′)10 [Compound 111]
Size (diameter, nm): 11 nm

KKKKKKKK-PEG4-(azide-DBCO)-(Ahx-(F′)10)2 [Compound 113]
Size (diameter, nm): 17 nm

KKKKKKKK-PEG24-(azide-DBCO)-Ahx-(F′)10 [Compound 115]
Size (diameter, nm): 16 nm

KKKKKKKK-PEG24-(azide-DBCO)-Ahx-(F′)20 [Compound 116]
Size (diameter, nm): 21 nm

KKKKKKKK-PEG4-(azide-DBCO)-Ahx-(F′)20 [Compound 112]
Size (diameter, nm): 19 nm

KKKKKKKK-PEG24-(azide-DBCO)-Ahx-(F′)5 [Compound 114]
Size (diameter, nm): 49 nm

KKKKKKKK-PEG4-(azide-DBCO)-Ahx-(F′)5 [Compound 110]
Size (diameter, nm): 1181 nm
